US11298363B2, “Triazolobenzazepines as vasopressin V1a receptor antagonists” (RICHTER GEDEON NYRT., priority 2017, dated 2022)

By UniProt entry, the sequences of proteins in these tests, tags left out.
UniProt P37288, whole entry: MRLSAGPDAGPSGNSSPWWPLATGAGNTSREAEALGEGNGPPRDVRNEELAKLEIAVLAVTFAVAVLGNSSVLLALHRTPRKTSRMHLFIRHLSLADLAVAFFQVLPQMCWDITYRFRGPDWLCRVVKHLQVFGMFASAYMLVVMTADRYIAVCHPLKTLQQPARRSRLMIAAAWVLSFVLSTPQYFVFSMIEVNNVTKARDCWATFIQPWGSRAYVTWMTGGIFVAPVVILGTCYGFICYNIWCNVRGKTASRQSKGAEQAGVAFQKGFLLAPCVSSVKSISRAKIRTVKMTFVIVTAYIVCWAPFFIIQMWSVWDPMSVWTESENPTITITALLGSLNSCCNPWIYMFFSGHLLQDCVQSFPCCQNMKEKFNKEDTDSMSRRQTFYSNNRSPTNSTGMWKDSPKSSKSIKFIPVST

What was measured:
[1] = target: T1, human vasopressin V1a receptor (Homo sapiens, UniProt P37288); assay: Functional assay on human vasopressin V1a receptor expressing cell line (intracellular Ca2+ fluorescence); type: cell-based; conditions: 1321N1 cells, (Arg8)-vasopressin at EC80; read-out: IC50 (nM) on hV1a cell line
Experimental: Functional Assay to Test Compounds on Human Vasopressin V1a Receptor Expressing Cell Line
The immortalized 1321N1 cell line (Perkin Elmer, ES-361-M400-UA) constitutively and stably expressing human vasopressin V1a receptor were used to measure the prepared compounds. The ordinary secondary messenger pathway of the measured GPCR receptor was used, the endogenous Gq-associated system.
Using 30,000 cells/plate, compounds were measured on 96-well plates. The buffer composition of the measurements was the following (expressed in mM): 140 NaCl, 5 KCl, 2 CaCl2), 2 MgCl2, 10 glucose, 10 HEPES (4-(2-hydroxyethyl)-1-piperazine-ethanesulfonic acid), 2 probenecid, pH=7.4. […] The materials to be measured were administered in 15 to 20 minutes pretreatment, at least two parallels of each compound in each concentration was measured.
Fluorescence signal was used to determine the intracellular Ca^2+ level, the reader was FlexStation II96. Cytoplasmic Ca^2+ concentrations were measured by fluorometry using the FlexStation II96 plate reader (excitation: 485 nm, emission: 525 nm). The fluorescence signal was logged in every 1.4 seconds for 1 minute. The reference compounds used were the following: (Arg^8)-vasopressin as agonist at concentration of EC80, determined for each plate, and relcovaptan as antagonist at 1 μM. […]
The total AVP concentration-response curve was recorded on each plate. […]

[2] = target: T1, human vasopressin V1a receptor; assay: Human vasopressin V1a receptor binding assay; conditions: 1321N1 cell membranes, [3H]vasopressin; read-out: Ki (nM) on hV1a cell line
Description: Human Vasopressin V1a Receptor Binding Assay
The immortalized 1321N1 cell line (Perkin Elmer, ES-361-M400-UA) constitutively and stably expressing human vasopressin V1a receptor and vasopressin (8-L-Arginine), [Phenylalanyl-3,4,5-^3H(N)] labelled compound (Perkin Elmer Life and Analytical Sciences) as radioligand were used to determine the affinity of the prepared compounds.
Membrane-preparation: Membrane preparation of immortalized 1321N1 cells expressing the propagated human Vasopressin V1a receptor was made according to Jarvis's method (Jarvis et al., J Pharmacol Exp Ther 2004, 310:407-16). Cells were suspended in preparative buffer (50 mM Tris, 1 mM EDTA, 0.1 mM PMSF) and homogenized with glass homogenizing potter. […]
The protein content of the prepared membrane was determined according to Lowry's method using standard dilution line of bovine serum albumin (BSA) (Lowry et al., J Biol Chem 1951, 193:265-75). […]
Non-specific binding values were determined in the presence of unlabeled 1.2×10^−6 M (Arg^8)-vasopressin. […] Finally, radioactivity was measured using MicroBeta^2 Microplate Counter (Perkin Elmer). […]

- IC50 [1]: 0.9 nM
- Ki [2]: 0.3 nM
Compound: Clc1ccc2c(c1)CC1(Cc3nnc([C@H]4CC[C@H](Oc5ccccn5)CC4)n3-2)OCCO1 [Example 53, 8′-chloro-1′-[trans-4-(pyridin-2-yloxy)cyclohexyl]-4′H,6′H-spiro[1,3-dioxolane-2,5′-[1,2,4]triazolo[4,3-a][1]benzazepine]]
